# AlphaSeq binding of Ab-95 light chain variants to a spike HR2 peptide

From the AlphaSeq antibody data of Engelhart et al. 2022 (doi:10.1038/s41597-022-01779-4), copy in the FLAb collection.

All variants were tested on one target, the spike HR2 peptide PDVDLGDISGINAS (SARS-CoV-2).

Parent: Ab-95, a human scFv built as VH, three GGGGS repeats, VL. Only the CDRs of the light chain vary.
VH: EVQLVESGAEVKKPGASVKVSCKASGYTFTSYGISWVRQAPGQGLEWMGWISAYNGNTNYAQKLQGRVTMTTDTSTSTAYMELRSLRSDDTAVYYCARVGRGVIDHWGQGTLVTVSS
VL: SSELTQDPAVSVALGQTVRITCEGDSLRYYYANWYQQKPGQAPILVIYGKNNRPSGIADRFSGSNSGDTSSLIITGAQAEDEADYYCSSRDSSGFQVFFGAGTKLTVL

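Phage display of a naive human antibody library on the peptide gave the parent. Variants in AAYL52 differ from the parent at up to three CDR positions; double and triple changes were sampled at random. AlphaSeq pools MATa yeast showing the antibodies with MATalpha yeast showing the peptide. Pairs that bind mate more often; barcode pairs of the diploids are counted by sequencing. A regression on co-assayed BCL2-family reference pairs converts the normalised counts of each replicate to an apparent Kd. Each pool was mated in three replicate cultures.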

Changes read parent residue, position, new residue, counted from the first residue of the VL shown.
The read-out is the apparent dissociation constant on a log10 scale (nM): the lower, the stronger.
The mean shown is taken over the replicates in which the pair was detected.
"nd" means that the variant was in the library but no mating with the target was seen in that replicate; the authors take this as a sign of poor binding, and no number exists.
Parent in this assay: reference entry 2.31, copy in this library 2.25.
Nonspecific signal, from three strains lacking the peptide, appeared in 28% of pairings of library AAYL52, centred on 3.91 (5% of these signals below 2.90); values are not corrected for it. The control count says in how many pairings with the empty strains this scFv gave a signal, with their mean in brackets.

| # | changes | replicates, log10 nM | mean log10 Kd (nM) | control signals |
|---|---|---|---|---|
| 1 | Y29T N51P R90Y | 5.11 nd nd | 5.11 | 2 of 9 (4.64) |
| 2 | S26L G94K | 4.31 6.03 nd | 5.17 | 3 of 9 (3.41) |
| 3 | N33E P54T Q96P | 4.67 nd nd | 4.67 | 4 of 9 (4.23) |
| 4 | S92A | 1.70 1.97 1.24 | 1.64 | 1 of 9 (4.01) |
| 5 | G24S P54T S88P | nd nd 3.27 | 3.27 | 5 of 9 (3.93) |
| 6 | E23I K50W Q96N | 3.78 3.30 3.88 | 3.65 | 5 of 9 (3.99) |
| 7 | E23M S55Y S93I | nd 4.15 nd | 4.15 | 2 of 9 (4.14) |
| 8 | K50S F98W | nd nd nd | nd | 0 of 9 |
| 9 | Y30N S89I F95N | 1.17 1.02 0.87 | 1.02 | 5 of 9 (4.24) |
| 10 | P54K D91F S93F | 3.04 3.93 3.97 | 3.65 | 2 of 9 (3.87) |
| 11 | E23V Y31V Q96L | 3.28 2.73 2.74 | 2.92 | 4 of 9 (3.63) |
| 12 | N51W P54A F98G | 5.11 3.84 3.95 | 4.30 | 2 of 9 (3.85) |
| 13 | G24Q S89Q F95P | nd 3.81 nd | 3.81 | 3 of 9 (3.81) |
| 14 | R28P Y30N S88C | 1.53 1.46 1.02 | 1.34 | 6 of 9 (4.31) |
| 15 | S55P S89F G94W | 2.89 2.78 2.86 | 2.84 | 3 of 9 (3.40) |
| 16 | E23I N52V R90P | 3.91 3.86 nd | 3.88 | 3 of 9 (4.34) |
| 17 | D25V A32P Q96A | 2.33 2.50 2.25 | 2.36 | 2 of 9 (3.63) |
| 18 | N52F S89I G94V | 2.48 2.67 2.46 | 2.54 | 4 of 9 (4.47) |
| 19 | L27M K50I P54M | 4.74 4.37 nd | 4.56 | 1 of 9 (4.21) |
| 20 | R28T S89W D91H | 4.82 nd nd | 4.82 | 0 of 9 |
| 21 | N33L K50S P54M | nd nd 4.48 | 4.48 | 3 of 9 (3.66) |
| 22 | G24F S89F F95E | 2.79 2.98 3.25 | 3.01 | 4 of 9 (3.72) |
| 23 | S55F | 2.99 2.33 2.53 | 2.62 | 2 of 9 (4.55) |
| 24 | S26Y L27F D91G | nd 3.81 nd | 3.81 | 2 of 9 (4.27) |
| 25 | S55W R90D V97P | 3.46 nd 2.04 | 2.75 | 0 of 9 |
| 26 | S89V S92F S93P | nd nd 3.76 | 3.76 | 2 of 9 (3.95) |
| 27 | E23V D25M L27Y | 3.61 4.30 4.95 | 4.29 | 2 of 9 (4.44) |
| 28 | Y30A N33I V97D | nd 4.07 nd | 4.07 | 3 of 9 (3.91) |
| 29 | A32G D91K G94N | nd 4.51 nd | 4.51 | 3 of 9 (3.73) |
| 30 | E23T G24V R28F | 3.71 nd 4.16 | 3.94 | 0 of 9 |
| 31 | Y30A R53I S93Y | 1.46 1.71 0.76 | 1.31 | 2 of 9 (4.38) |
| 32 | G24N K50L N52S | 4.25 4.05 3.95 | 4.08 | 6 of 9 (4.11) |
| 33 | E23H R53I G94A | 2.39 2.87 3.20 | 2.82 | 1 of 9 (4.37) |
| 34 | N52P P54W D91I | 4.00 nd nd | 4.00 | 2 of 9 (3.98) |
| 35 | Y31G G49K | 3.14 2.56 4.16 | 3.29 | 2 of 9 (4.35) |
| 36 | K50T N52E G94C | nd nd 3.35 | 3.35 | 0 of 9 |
| 37 | S89D D91S S92P | 1.92 1.73 1.44 | 1.70 | 6 of 9 (3.82) |
| 38 | R28P Y30T A32F | 3.06 3.36 4.42 | 3.61 | 5 of 9 (3.97) |
| 39 | R28M F95L | 2.48 2.41 2.47 | 2.45 | 4 of 9 (3.79) |
| 40 | R28C P54L F98T | nd 3.72 3.93 | 3.82 | 3 of 9 (3.80) |
| 41 | Y31I R53T S55E | 3.97 3.39 4.11 | 3.82 | 6 of 9 (4.02) |
| 42 | L27S R28Q Q96L | 2.75 3.42 3.71 | 3.29 | 1 of 9 (4.60) |
| 43 | D25H G49T S93H | 3.44 nd 2.88 | 3.16 | 3 of 9 (3.34) |
| 44 | E23L F95M Q96P | 3.21 3.51 3.09 | 3.27 | 4 of 9 (4.14) |
| 45 | G24L S88L S93Q | nd nd 3.25 | 3.25 | 1 of 9 (3.73) |
| 46 | S26M Y31N R53G | 3.10 3.31 3.79 | 3.40 | 2 of 9 (4.09) |
| 47 | R28E S93C Q96D | 1.99 2.13 1.73 | 1.95 | 3 of 9 (3.55) |

For reference, 4 entries of the list once more:

| changes | replicates, log10 nM | mean log10 Kd (nM) | control signals |
|---|---|---|---|
| S92A | 1.70 1.97 1.24 | 1.64 | 1 of 9 (4.01) |
| E23V Y31V Q96L | 3.28 2.73 2.74 | 2.92 | 4 of 9 (3.63) |
| R28P Y30N S88C | 1.53 1.46 1.02 | 1.34 | 6 of 9 (4.31) |
| N33E P54T Q96P | 4.67 nd nd | 4.67 | 4 of 9 (4.23) |